Test results taken from patent US9376387B2 (priority 2013, dated 2016).

System: Peripheral Anionic Site (PAS) of AChE

Structure (SMILES) | Binding to the PAS measured by propidium iodide displacement
COc1ccc2c(c1)CCC(CC1C=CN(Cc3ccccc3Cl)C=C1C(C)=O)C2=O (stereo not drawn) [Compound 157, 2-[[3-acetyl-1-[(2-chlorphenyl)methyl]-4H-pyridin-4-yl]methyl]-6-methoxy-tetralin-1-one] | 15%
COc1cc2c(cc1OC)C(=O)C(CC1C=CN(Cc3ccccc3)C=C1C(C)=O)CC2 (stereo not drawn) [Compound 162, 2-[(3-acetyl-1-benzyl-4H-pyridin-4-yl)methyl]-6,7-dimethoxy-tetralin-1-one] | 16%
COc1cc2c(cc1OC)C(=O)C(CC1C=CN(Cc3ccccc3C)C=C1C(C)=O)C2 (stereo not drawn) [Compound 169, 2-[[3-acetyl-1-(o-tolylmethyl)-4H-pyridin-4-yl]methyl]-5,6-dimethoxy-indan-1-one] | 17%
